The values that follow are results of earlier work, collected in patent publication US20150132388A1, “COMPLEXES OF FULVESTRANT AND ITS DERIVATIVES, PROCESS FOR THE PREPARATION THEREOF AND PHARMACEUTICAL COMPOSITIONS CONTAINING THEM” (Druggability Technologies Holdings Limited, priority 2013, published 2015).

Chains of the proteins cited; added tags and fusions are not shown.
UniProt P08684, whole entry: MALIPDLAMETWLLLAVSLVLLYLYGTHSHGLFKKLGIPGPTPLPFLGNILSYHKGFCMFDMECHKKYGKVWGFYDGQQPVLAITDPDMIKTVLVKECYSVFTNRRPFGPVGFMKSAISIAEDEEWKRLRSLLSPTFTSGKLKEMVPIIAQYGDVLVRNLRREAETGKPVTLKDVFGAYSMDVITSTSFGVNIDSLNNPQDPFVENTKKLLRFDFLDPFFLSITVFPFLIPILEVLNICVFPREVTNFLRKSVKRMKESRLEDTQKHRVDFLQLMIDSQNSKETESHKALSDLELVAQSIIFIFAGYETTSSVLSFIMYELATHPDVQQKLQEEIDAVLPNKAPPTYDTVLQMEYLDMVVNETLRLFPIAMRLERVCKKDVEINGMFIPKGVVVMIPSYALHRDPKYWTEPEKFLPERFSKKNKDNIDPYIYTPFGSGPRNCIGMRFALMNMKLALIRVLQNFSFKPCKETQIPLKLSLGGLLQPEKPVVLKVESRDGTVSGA

This series addresses cytochrome P-450 3A4 (CYP 3A4) (Homo sapiens, UniProt P08684). Conditions: human liver preparations and recombinant human enzymes; cited from earlier work.

In the case of “7-alpha-[9-(4,4,5,5,5-penta fluoropentylsulphinyl)nonyl]estra-1,3,5-(10)-triene-3,17 beta-diol [Fulvestrant]”, the “P-450 isoenzyme involved in the oxidation” value is reported as “cytochrome P-450 3A4 (CYP 3A4) is the only P-450 isoenzyme involved”.
